Laboratory results published in US20200010482A1, “INHIBITORS OF BETA SECRETASE” (Janssen Pharmaceutica NV, priority 2017, published 2020).

Amino acid sequences for entries named in this document (tags omitted). Residues count along the entry.
UniProt P56817, 46-501 limits assumed: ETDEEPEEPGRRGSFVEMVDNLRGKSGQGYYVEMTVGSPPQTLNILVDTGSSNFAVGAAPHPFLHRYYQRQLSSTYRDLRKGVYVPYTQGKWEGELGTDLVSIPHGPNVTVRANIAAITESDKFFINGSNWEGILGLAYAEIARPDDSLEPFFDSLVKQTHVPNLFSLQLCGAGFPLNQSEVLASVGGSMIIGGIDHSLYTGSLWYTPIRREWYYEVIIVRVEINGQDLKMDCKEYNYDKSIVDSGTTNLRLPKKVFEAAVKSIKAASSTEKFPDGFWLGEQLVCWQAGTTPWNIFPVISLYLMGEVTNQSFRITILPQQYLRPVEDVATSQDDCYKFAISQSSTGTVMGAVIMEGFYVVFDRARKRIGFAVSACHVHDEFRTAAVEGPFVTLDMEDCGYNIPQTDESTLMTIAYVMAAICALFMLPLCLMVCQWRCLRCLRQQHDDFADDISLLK

Legend:
β-secretase I (BACE1) = β-secretase I (BACE1) (Homo sapiens, UniProt P56817); test: Biochemical assay, automated (CyclOps), BACE1; conditions: automated CyclOps bioassay
Experimental: Unless otherwise indicated all biochemicals were purchased from Sigma-Aldrich Chemical Company, Poole, Dorset, U.K. and non-aqueous solvents, of analytical or higher grade, were purchased from ThermoFisher Scientific, Loughborough, U.K. MilliQ water (Elix 5 & MilliQ Gradient; Merck Millipore) was used as the base aqueous solvent to make up the biological buffers. Base assay buffer was prepared by adding a 50 mM solution of citric acid (1.00244; Merck Biosciences) to stirring solution of 50 mM trisodium citrate (1.06448; Merck Biosciences) until a final pH of 5.0 was achieved. […] All assays were routinely carried out in 384-well assay plates (Costar 4514; Corning Life Sciences) and incubated at 37±1° C. for 60 min. prior to reading the endpoint fluorescence intensity. The (7-methoxyl coumarin-4-yl)acetic acid based substrate β-secretase substrate VI (M2465; Bachem) was prepared as a 1 mM stock in 100% DMSO (D/4121/PB08; ThermoFisher). Assay buffer was prepared by adding DMSO to base buffer to a final concentration of 1% (vol./vol.). β-secretase I (18.64 μM; “BACE1”) and β-secretase II (4.65 μM; “BACE2”) were obtained from Janssen Pharmaceutica, Beerse, Belgium and were stored as frozen aliquots (˜20 μl) and thawed as required.
Typically 12.5 μl of assay buffer was dispensed to rows B to P of the assay plate. To row A was added 18.75 μl of test compound diluted appropriately in assay buffer. A 6.25 μl aliquot of sample was transferred from row A to row B and the sample mixed three times by pipette. The process was repeated down the plate and 6.25 μl of solution discarded at row N post-mix. Rows O and P were designated as the positive and negative controls. To row P was added 6.25 μl base buffer. To rows A to O was added 6.25 μl enzyme (freshly prepared 40 nM BACE1 or 40 nM BACE2) diluted in base buffer. To initiate the assay 6.25 μl of freshly prepared 80 μM substrate, made up by diluting the 1 mM in 100% DMSO solution into HPLC grade water (Optima W6-212; ThermoFisher), was added to all the wells. The assay plate was covered and incubated at 37±1° C. for 60 min. The fluorescence intensity of the wells was read at 360/405 nm (excitation/emission) utilising a nine reads per well protocol (50 ms integration; density of 3, 0.25 mm spacing; SpectraMAX Paradigm plate reader; TUNE cartridge; SoftMax Pro v 6.3 software; Molecular Devices UK Ltd., Wokingham, Berkshire, UK) and outputting the median value of the nine reads as a text file. Data analysis was carried out using Prism software v 6.3 (GraphPad Inc., San Diego, Calif., USA) using the non-linear regression analysis models supplied by the vendor. For IC50 determinations the four parameter logistic variable slope model was used to fit the raw fluorescence intensity data with the ‘bottom’ fixed to the negative control.
The CyclOps bioassay module consisted of a fraction collection station, a reagent station, liquid handling robotics, plate store and an integrated plate reader (SpectraMAX Paradigm, TUNE cartridge, SoftMax Pro v 6.3; Molecular Devices). The fraction collection station composed of a 384 well collection plate (P-384-240SQ-C; Axygen, Union City, Calif., USA) mounted on a H-portal carriage (Festo AG & Co. KG, Esslingen, Germany), a syringe drive and a two-way six port injection valve fitted with a 200 μl loop (VICI AG International, Schenkon Switzerland). The output of the injection valve was addressable to all the positions of a 384 well collection plate. The reagent station consisted of hydraulically cooled (10-12° C.) aluminium segments; each manufactured to house a SBS microtiter plate footprint. Independent addressable reagent stations were housed within these sections. Where required, custom aluminium housings were used to accommodate standard laboratory plastic ware (e.g. Eppendorf tubes, Falcon tubes, etc.). As and when required the reagent reservoirs were covered and the lids contained holes through which the Teflon-coated probe could access solutions. […]

[1] = test system: Abeta 1-42 produced and secreted by SKNBE2 cells expressing hAPP695; test: Cellular αLisa assay in SKNBE2 cells, Abeta 1-42; conditions: SKNBE2 cells expressing hAPP695, 18 hours incubation
Experimental: In two αLisa assays the levels of Abeta total and Abeta 1-42 produced and secreted into the medium of human neuroblastoma SKNBE2 cells are quantified. The assay is based on the human neuroblastoma SKNBE2 expressing the wild type Amyloid Precursor Protein (hAPP695). The compounds are diluted and added to these cells, incubated for 18 hours and then measurements of Abeta 1-42 and Abeta total are taken. Abeta total and Abeta 1-42 are measured by sandwich αLisa. αLisa is a sandwich assay using biotinylated antibody AbN/25 attached to streptavidin coated beads and antibody Ab4G8 or cAb42/26 conjugated acceptor beads for the detection of Abeta total and Abeta 1-42 respectively. In the presence of Abeta total or Abeta 1-42, the beads come into close proximity. The excitation of the donor beads provokes the release of singlet oxygen molecules that trigger a cascade of energy transfer in the acceptor beads, resulting in light emission. Light emission is measured after 1 hour incubation (excitation at […] and emission at 615 nm).
A best-fit curve is fitted by a minimum sum of squares method to the plot of % Controlmin versus compound concentration. From this an IC50 value (inhibitory concentration causing 50% inhibition of activity) can be obtained. • LC=Median of the low control values=Low control: cells preincubated without compound, without biotinylated Ab in the αLisa • HC=Median of the High control values=High Control: cells preincubated without compound
% Effect=100−[(sample−LC)/(HC−LC)*100]
% Control=(sample/HC)*100
% Controlmin=(sample−LC)/(HC−LC)*100

SMILES	AUTOMATED ASSAY BACE1 pIC50 (β-secretase I (BACE1))	AUTOMATED ASSAY BACE1 pIC50 (β-secretase I (BACE1); tested form: free base)	CELLULAR αLISA ASSAY IN SKNBE2 CELLS ABETA 42 PIC50 [1]	CELLULAR αLISA ASSAY IN SKNBE2 CELLS ABETA 42 PIC50 ([1]; tested form: free base)	CELLULAR αLISA ASSAY IN SKNBE2 CELLS ABETA 42 PIC50 ([1]; tested form: formate)
COc1ccc(F)c(-c2cnc(OC)c3c2C[C@H]2CSC(N)=N[C@@]2(c2ccc(F)cc2F)C3)c1		7.5		7.64	
COc1ccccc1-c1cnc(OC)c2c1C[C@H]1CSC(N)=N[C@@]1(c1ccc(F)cc1F)C2	7.24		7.22		
COc1ncc(-c2ccc(F)cc2C)c2c1C[C@]1(c3cc(OCC4CCOCC4)ccc3F)N=C(N)SC[C@@H]1C2	8.26				6.89
COc1ncc(-c2cc(C)nc3c2CCCC3)c2c1C[C@]1(c3ccc(F)cc3F)N=C(N)SC[C@@H]1C2	5.87		7.44		

Further lines, with some results ahead:

AUTOMATED ASSAY BACE1 pIC50 (β-secretase I (BACE1))	AUTOMATED ASSAY BACE1 pIC50 (β-secretase I (BACE1); tested form: free base)	SMILES	CELLULAR αLISA ASSAY IN SKNBE2 CELLS ABETA 42 PIC50 [1]	CELLULAR αLISA ASSAY IN SKNBE2 CELLS ABETA 42 PIC50 ([1]; tested form: free base)	CELLULAR αLISA ASSAY IN SKNBE2 CELLS ABETA 42 PIC50 ([1]; tested form: formate)
7.795		COc1ncc(-c2c(C)noc2C)c2c1C[C@]1(c3ccc(F)cc3F)N=C(N)SC[C@@H]1C2	7.78		
7.07		COc1ncc(-c2c(C)noc2C)c2c1C[C@]1(c3cc(OCC4CCOCC4)ccc3F)N=C(N)SC[C@@H]1C2			6.81
7.77		COc1ncc(-c2c(C)noc2C)c2c1C[C@]1(c3cc(OCc4ncccn4)ccc3F)N=C(N)SC[C@@H]1C2			7.1
7.72		COc1ncc(-c2c(C)noc2C)c2c1C[C@]1(c3cc(OCC4CC4)ccc3F)N=C(N)SC[C@@H]1C2			5.57
